Measured values taken from PubChem BioAssay AID651999 (Sanford-Burnham Center for Chemical Genomics, 2013).
Only a part is listed here, and it is no random draw. The source made the active and inactive calls.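 How the source made its calls: active means pattern-corrected inhibition above about 35%, with an unprinted fluorescence ratio check between 0.5 and 1.5 (limit read from the data, passing the limit was not always enough); inactive means the rest.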

The chains behind the UniProt entries cited, without tags or fusion partners.
UniProt Q92905, whole entry, looked up: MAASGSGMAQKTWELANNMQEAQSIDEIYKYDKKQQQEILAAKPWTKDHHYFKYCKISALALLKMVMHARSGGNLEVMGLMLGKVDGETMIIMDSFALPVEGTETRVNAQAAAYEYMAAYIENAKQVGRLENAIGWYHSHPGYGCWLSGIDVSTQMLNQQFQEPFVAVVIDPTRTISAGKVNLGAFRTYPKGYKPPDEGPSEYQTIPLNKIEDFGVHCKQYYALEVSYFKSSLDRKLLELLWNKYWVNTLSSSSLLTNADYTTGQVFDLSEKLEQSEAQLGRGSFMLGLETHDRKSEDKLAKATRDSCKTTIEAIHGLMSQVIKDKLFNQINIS

Target: COP9 signalosome complex subunit 5 (Homo sapiens) (UniProt Q92905)
Test: CSN5 deneddylase inhibitors on cullin-RING ligase – biochemical, fluorescence polarization, uHTS, primary screen (AID 651999);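 further: 0% = enzyme with substrate and 100% = substrate without enzyme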
Conditions: Purified CSN, SCF-Nedd8-OG deneddylation, at 12.5 µM, active compounds read high
Summary of the method: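 Assay system: purified human Csn5 enzyme expressed in HEK293T cells; measure: % inhibition; also added: SCFSkp2-Nedd8OG substrate at 10 nM final; technique: fluorescence polarization; times: reaction 90 min, room temperature; medium: Tris buffer pH 7.5, NaCl, DTT, Tween-20, trehalose, ovalbumin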

Structure (SMILES) | inhibition
Cc1nn(-c2ccccc2)c2c1P(=O)(N1CCOCC1)N(C)C(c1ccccc1)=N2 (stereo not drawn) | inactive: -1.92%
CC1CCC(C(C)C)C(OP(=O)(Nc2ccccn2)c2ccccc2)C1 (stereo not drawn) | inactive: 5.88%
Cc1ccc(C(=O)OC2CN3CCC2CC3)cc1 (stereo not drawn) | inactive: 2.9%
CN(C)C1(CNC(=O)c2ccc(S(C)(=O)=O)cc2)CCCCC1 | inactive: -5.89%
O=C(/C=C/c1ccccc1)OC1CN2CCC1CC2 (stereo not drawn) | inactive: 5.83%
CCCC1OP(=O)(Nc2ccccc2)OCC1CC (stereo not drawn) | inactive: -5.03%
CCOC(=O)Nc1cccc([As](=O)(O)O)c1 | inactive: 0.17%
O=P(Nc1ccccn1)(c1cccc2ccccc12)c1cccc2ccccc12 | inactive: -16.9%
Cc1cc(SC(NC=O)C(Cl)(Cl)Cl)ncn1 (stereo not drawn) | inactive: 2.09%
O=[N+]([O-])c1ccc(Nc2ccc(Oc3ccc([N+](=O)[O-])cc3[N+](=O)[O-])cc2)c([N+](=O)[O-])c1 | inactive: -1.11%
CCOC(=O)Nc1ccc([As](=O)(O)O)c(O)c1 | inactive: -0.94%
O=C(O)C(O)c1ccc(N(CCCl)CCCl)cc1 (stereo not drawn) | inactive: 8.52%
CC1CCNP(=O)(N(CCCl)CCCl)O1 (stereo not drawn) | inactive: -1.67%
COP(=O)(OC)N1CC1c1ccccc1 (stereo not drawn) | inactive: 0.01%
CCCCOc1ccc(C(=O)NCC2(N3CCCCC3)CCCCC2)cc1OC | inactive: 1.88%
Cc1cc(SC(NC(=O)c2ccccc2)C(Cl)(Cl)Cl)nc(C(C)C)n1 (stereo not drawn) | inactive: -7.52%
O=C(OC1CN2CCC1CC2)c1cccc([N+](=O)[O-])c1 (stereo not drawn) | inactive: -1.42%
CSc1ccc(Nc2c([N+](=O)[O-])cc([N+](=O)[O-])cc2[N+](=O)[O-])cc1 | inactive: -4.46%
CCOC(=O)c1ccc(NC(=O)C(C)(CCl)SC)cc1 (stereo not drawn) | inactive: 3.48%
CCC(C)N(CC(C)C)C(=S)SC(NC(C)=O)C(Cl)(Cl)Cl (stereo not drawn) | inactive: -1.3%
COP1(=S)c2c(C)nn(CCC#N)c2N=C(c2ccc(F)cc2)N1C (stereo not drawn) | inactive: 3.09%
COC(=O)C1(C)COP(=O)(N2CCCC2)OC1 (stereo not drawn) | inactive: -3.93%
O=C(O)C(=O)c1ccc(N(CCCl)CCCl)cc1 | inactive: 0.22%
O=C(COc1ccccc1)OC1CN2CCC1CC2 (stereo not drawn) | inactive: -0.29%

Structure (SMILES) | inhibition
O=C(Nc1ccncc1[N+](=O)[O-])c1ccc([N+](=O)[O-])cc1[N+](=O)[O-] | inactive: 0.33%
O=[N+]([O-])c1cc(Oc2ccc([N+](=O)[O-])cc2C(F)(F)F)cc([N+](=O)[O-])c1 | inactive: -1.91%
COc1ccc(N/C(=N/P(=O)(N2CCOCC2)N2CCOCC2)N2CCOCC2)cc1 | inactive: -5.6%
Cc1c2c(nc3ccccc13)SC(C(Cl)Cl)C2 (stereo not drawn) | inactive: 2.53%
O=C(OC1CN2CCC1CC2)C12CC3CC(CC(C3)C1)C2 (stereo not drawn) | inactive: 4.52%
Cc1cc(=O)[nH]c(N[N+](=O)[O-])n1 | inactive: 0.18%
O=P1(N(CCCl)CCCl)OCCCN1CCCl (stereo not drawn) | inactive: -3.43%
O=P1(N(CCCl)CCCl)Nc2ccccc2N1 | inactive: -0.91%
COc1ccc2nc(NP(=O)(c3ccccc3)c3ccccc3)sc2c1 | inactive: 1.17%
COc1cc(I)ccc1[As](=O)(O)O | inactive: 7.3%
ClCCSc1nnc(-c2cccnc2)o1 | inactive: -1.74%
COC(=O)C1(C)COP(=O)(N2CCCCCC2)OC1 (stereo not drawn) | inactive: 1.84%
CC(C)c1ccc(OP(=O)(Nc2ccccn2)Oc2ccccc2F)cc1 (stereo not drawn) | inactive: -1.95%
CC(C)NC(=O)NP(=O)(Oc1ccccc1)Oc1ccccc1 | inactive: -9.4%
O=C(OC1CN2CCC1CC2)c1cccc2[nH]cnc12 (stereo not drawn) | inactive: 3.06%
CCN(CC)C(=S)SC(NC=O)C(Cl)(Cl)Cl (stereo not drawn) | inactive: 0.88%
O=[N+]([O-])c1cc([N+](=O)[O-])c(-c2ccn[nH]2)s1 | inactive: 2.52%
O=[As](O)(c1ccc(O)cc1)c1ccccc1O | inactive: -0.52%
C[As](=O)(O)c1cccc(C(=O)O)c1 | inactive: 4.54%
O=[N+]([O-])c1ccc(-c2cc([N+](=O)[O-])c(O)c([N+](=O)[O-])c2)cc1 | inactive: 5.42%
COc1cc(C(=O)NCC2(N3CCOCC3)CCCCC2)ccc1OCC(C)C | inactive: -4.31%
[N-]=[N+]=NC1CCCCC1NC(=O)c1cc([N+](=O)[O-])cc([N+](=O)[O-])c1 (stereo not drawn) | inactive: 2.07%
Cc1ccc(OP(=O)(Nc2ccc([N+](=O)[O-])cn2)Oc2ccc(C)cc2)cc1 | inactive: -1.27%
Cc1ccc2nc3c(c(C)c2c1)CC(C(Cl)Cl)S3 (stereo not drawn) | inactive: -2.51%
